Yeast mating assay 1: variants of the scFv Ab-14

From the AlphaSeq antibody data of Engelhart et al. 2022 (doi:10.1038/s41597-022-01779-4), copy in the FLAb collection.

Target: peptide PDVDLGDISGINAS, taken from heptad repeat 2 (HR2) of SARS-CoV-2 spike.

Parent scFv Ab-14: VH joined to VL by three GGGGS repeats. Changes lie in the heavy chain CDRs alone.
VH: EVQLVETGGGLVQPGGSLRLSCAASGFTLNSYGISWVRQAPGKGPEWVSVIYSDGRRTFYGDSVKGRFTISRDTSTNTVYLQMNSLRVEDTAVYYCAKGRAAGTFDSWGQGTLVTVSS
VL: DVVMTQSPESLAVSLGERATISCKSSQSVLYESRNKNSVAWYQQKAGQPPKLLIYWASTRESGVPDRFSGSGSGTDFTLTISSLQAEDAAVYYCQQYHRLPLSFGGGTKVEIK

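The starting antibody came from a phage panning campaign against this peptide. AAYL49 was designed without a model: most single CDR substitutions and a random sample of double and triple ones. The scFvs were displayed on barcoded MATa yeast, the peptide on MATalpha yeast. Pairs that bind mate more often; barcode pairs of the diploids are counted by sequencing. Each replicate has its own calibration line, from reference interactions of the BCL2 family. The assay was run in three technical replicates.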

The parent's heavy chain CDRs are GFTLNSYGIS, VIYSDGRRTFYGDSVK, GRAAGTFDS; each variant's own CDRs replace them letter for letter.
Affinities are written as log10 Kd with Kd in nM; a lower number is a better binder.
The mean shown is taken over the replicates in which the pair was detected.
Where no diploid with the target was found in any replicate, the entry reads "no signal": below detection, most likely a poor binder, though not proof of it.
Parent in this assay: reference entry 0.65, copy in this library 4.11 (one replicate of three).

CDR-H1	CDR-H2	CDR-H3	mean, log10 nM	seen in
GFTLNSYEIS	VIYSDGDRTFYGDSVK	GPAAGTFDS	3.98	2/3
GFTLNSYHIS	VIYSDGRRTFYGDSVT	GRAAGDFDS	5.49	2/3
QFTLNQYGIS	VIYSQGRRTFYGDSVK	GRAAGTFDS	no signal	0/3
GFTSNSYGIS	VIYSDGRRTFYGHSVK	GRAAGTFTS	no signal	0/3
GFTLNSYGIS	VIYSDGRRTFYGDAVK	GRAAGQFDS	3.97	2/3
GFTQNSYGIS	VIYSDGRRTFLGDSVK	GRAAGTADS	no signal	0/3
GFTLNSYGIS	VIMSDGRRTFYGDSVY	GRYAGTFDS	4.43	1/3
GFTLNSYGIS	VKYSDGRRTFYGDIVK	GRAAGTFVS	4.89	2/3
GFTLNLYGIQ	LIYSDGRRTFYGDSVK	GRAAGTFDS	no signal	0/3
GFTCNSTGIS	VIYSDGRATFYGDSVK	GRAAGTFDS	no signal	0/3
GGTLNSYGIS	VIYSYGRRTFYGDSVK	GRAALTFDS	no signal	0/3
GFTLNSYGIS	VIYSDQRCTFNGDSVK	GRAAGTFDS	5.05	1/3
GFTLNRVGIE	VIYSDGRRTFYGDSVK	GRAAGTFDS	no signal	0/3
GFTLNSYGIS	VIYSDGRRTMYGDSVK	GIYAGTFDS	1.40	3/3
GFTLNSYGIS	VIYSDGRRTFYYDSVK	GCAAGTFDS	3.93	1/3
GFTLNSYGIS	RIYSDGRRNFYGDSVK	GRAANTFDS	no signal	0/3
GFRLNSYHIS	VIYSDGRRTFYGDSVK	GRAAGIFDS	3.91	2/3
GFTLNSWGIS	VIYSDGRRKFYGDSVK	GRAVGTFDS	no signal	0/3
GFTLNSYGIS	PIYIDGRRTFYGDSVK	GRCAGTFDS	no signal	0/3
GFTLNSYGIS	VIYSDGKTTFYGDSVK	GRRAGTFDS	2.23	2/3
GFTLNSYGIS	VVYSDKRRTFYGDSVK	GRAAGTFDS	3.66	1/3
VFTLNSYGIS	VIYSDGRVTFAGDSVK	GRAAGTFDS	3.57	1/3
GFTLNSYKIQ	VIYSDGLRTFYGDSVK	GRAAGTFDS	no signal	0/3
GFTLNGYGIS	YIYSDGRRTFYPDSVK	GRAAGTFDS	no signal	0/3
GYTLNSYKIS	VIYSDGRMTFYGDSVK	GRAAGTFDS	no signal	0/3
GFTNNTYGIS	VIYSDGERTFYGDSVK	GRAAGTFDS	no signal	0/3
GFTLNSYGIS	AIYSDGYRTFYGDSVA	GRAAGTFDS	no signal	0/3
GFTLNSYGWS	VIYSDGRWTWYGDSVK	GRAAGTFDS	2.99	1/3
GFTLNCYGIS	VIYSDGRRTFYGDSVK	YRAAGTFHS	no signal	0/3
GYTLNSYGIS	LIYSDGRRTFYGDSVK	GRAAGTEDS	no signal	0/3
GFTENSYVPS	VIYSDGRRTFYGDSVK	GRAAGTFDS	no signal	0/3
GFTLNSYGIS	VIQSDHRRTFYGDSVF	GRAAGTFDS	4.68	2/3
GFTLNSYGIS	VIYSMGRRTFYGDSAK	GRAAGTVDS	4.85	1/3
GFTLNSYGIS	GIYSDGRRIFYGDSVK	GMAAGTFDS	4.17	1/3
GFTLNSYGFS	VIYSDGRRTFYGDSNK	GRAAGTFMS	no signal	0/3
GFTLNSYGIS	VIYSDGRFTFYGDNVK	GRAAGTFDC	3.59	1/3
SFTLNSYGIS	VIVSDGRRTFYGDSVK	NRAAGTFDS	5.14	2/3
GTTLNSYGIS	VIYSDRRRTFYGESVK	GRAAGTFDS	no signal	0/3
GFTLNSYGIS	VIYSDGRRTFYGDSVK	GEAAKQFDS	3.54	1/3
GFWNNSYGIS	VIYSDGRRTFYCDSVK	GRAAGTFDS	3.43	2/3
GFTLNSYGIP	VIYSDGRRTFYGQSVK	GRAAGTFDS	4.78	1/3
GFTLNSRGIS	VIYSWGRRTFYGDSVQ	GRAAGTFDS	no signal	0/3
GFRLPSYGIS	VIYSDGRRTFYGVSVK	GRAAGTFDS	no signal	0/3
GGTLNSYGIS	VIPSDGRRTFYGDSVK	GRAAGTEDS	4.81	1/3
GFTGNSYGIS	VIYSDFRRTFYGDEVK	GRAAGTFDS	no signal	0/3
GFTLNPYGES	VIYSDGRRTFYGDSVK	DRAAGTFDS	4.94	2/3
GFTLNSYGIS	VIYSDGRREIYGDSVK	GRAAGTHDS	4.73	2/3
GFTLNSYGIS	VIYSDGGRTFYGYHVK	GRAAGTFDS	no signal	0/3
QFTLNSPGIS	VIYSDGRRTFYGDSVK	GRAAGTFDS	5.89	1/3
GFTLNSYGIS	VIYSDCRRTFYGDSVK	GRAAGTFMS	no signal	0/3
GFTLFSYGAS	VTYSDGRRTFYGDSVK	GRAAGTFDS	no signal	0/3
GFTMNSYGIS	VIYSDGRRTFYGDSIK	GRNAGTFDS	2.38	3/3
GFTLNSYGIS	PIYCDGRRTFYGTSVK	GRAAGTFDS	no signal	0/3
GFTLNSSGIS	QIYSDGRRTFYGDVVK	GRAAGTFDS	3.92	1/3
GYTLNSYGIS	VIYSDGNRTFYGDMVK	GRAAGTFDS	3.24	3/3
GHTLNSYGIS	VIKSDGRRTFYGLSVK	GRAAGTFDS	no signal	0/3
GFTLNSYGIS	VVYSGGRRTFYGDDVK	GRAAGTFDS	4.67	2/3
GFTLWSYGIS	VQYSDGRRTFYGDSVK	GREAGTFDS	2.55	3/3
GFCLNSYGIS	VIYSDGRRTFYGDSVN	GRAAGTFDV	1.64	3/3
GFTLNSYKIS	VIYSDGRRTFYGDSVK	GRAAGTFWC	no signal	0/3
GMTLNSYGIS	VIYSDGQRTIYGDSVK	GRAAGTFDS	3.37	3/3
GFTLNENGIS	VIYSDGRRTFYGDSVA	GRAAGTFDS	2.85	2/3
GFTCNSYGNS	VIYSDGRRTFYGDSVK	GRAAGTFDS	4.10	1/3
GFTLNSYGIS	VIYSDGRRTFYGDSHK	GRAGGTFDS	no signal	0/3
GMTLNSYDIS	VIYSDGRRTFYGDIVK	GRAAGTFDS	3.85	1/3
GFTDNSYGIS	VIYSDGRRTFMGDSVK	GRAAGNFDS	no signal	0/3
GITLNSYGIS	VIYSDGRRTFYGDSVK	GRAAGTWDL	1.62	3/3

Excerpt, the final 7 entries:

CDR-H1	CDR-H2	CDR-H3	mean, log10 nM	seen in
GMTLNSYGIS	VIYSDGQRTIYGDSVK	GRAAGTFDS	3.37	3/3
GFTLNENGIS	VIYSDGRRTFYGDSVA	GRAAGTFDS	2.85	2/3
GFTCNSYGNS	VIYSDGRRTFYGDSVK	GRAAGTFDS	4.10	1/3
GFTLNSYGIS	VIYSDGRRTFYGDSHK	GRAGGTFDS	no signal	0/3
GMTLNSYDIS	VIYSDGRRTFYGDIVK	GRAAGTFDS	3.85	1/3
GFTDNSYGIS	VIYSDGRRTFMGDSVK	GRAAGNFDS	no signal	0/3
GITLNSYGIS	VIYSDGRRTFYGDSVK	GRAAGTWDL	1.62	3/3

Empty control strains, which show no peptide, gave a signal in 15% of pairings with library AAYL49; the median was 4.06 and 95% of these signals were weaker than 2.83. No background was subtracted.